Values quoted from earlier work in patent publication US20070129329A1, “Stabilized pharmaceutical composition of pramipexole and method of preparation thereof” (ALEMBIC LIMITED, priority 2005, published 2007).

Settings: drug substance itself

Question: Which “stability in solid state” value does the source give for `CCCN[C@H]1CCc2nc(N)sc2C1.Cl.Cl.O` [pramipexole dihydrochloride, (S)-2-amino-4,5,6,7-tetrahydro-6-(propylamino) benzothiazole dihydrochloride monohydrate] here?
Answer: good stability
